In US6451784B1 (priority 1996, dated 2002):

Key:
[1] = tested on: Sprague Dawley rats; test: Vesicant activity test: single intradermal injection, dermal lesion size; details: for Vesicant classification as determined by the methods used herein: lesion of at least about 20 mm^2 in at least one half of animals at day 15, severe: at least one-half still >about 10 mm^2 at day 31; for Individual Lesion Size Measurements, Day of Test (post injection) 20: day 20; for Individual Lesion Size Measurements, Day of Test (post injection) 22: day 22; for Individual Lesion Size Measurements, Day of Test (post injection) 24: day 24; for Individual Lesion Size Measurements, Day of Test (post injection) 27: day 27; for Individual Lesion Size Measurements, Day of Test (post injection) 29: day 29
[2] = tested on: patients; details: IV administered drug, Physicians Desk Reference 1997; cited from earlier work
[3] = rats, cited from earlier work
[4] = mice, IV injection (Siddik et al); cited from earlier work
[5] = tested on: rats; test: Respiratory tract toxicity of inhaled carboplatin in rats (Example 39); details: for Results (RTT = respiratory tract toxicity evaluated microscopically): inhaled
[6] = Carboplatin formulations for inhalation, physical constants and saturation (Example 42)
[7] = Carboplatin taken up by lung tissue and blood plasma after inhalation in rats (Example 40); details: for Ratio of carboplatin in lung to carboplatin in plasma: rat, inhalation, highest dose
[8] = tested on: neoplastic lung disease; details: Ex. 17, Rottweiler, excised distal osteosarcoma, lung nodule; inhalation Dox 7 mg, × 2, Cisplatin 15 mg, × 1; trial 1 mo.
[9] = rat, 0.2 ml intradermal at clinical concentration, individual animals
[10] = 0.24 mg/ml in 20:80% w/w propylene glycol:ethanol
[11] = 0.26 mg/ml in 20:80% w/w PEG 300:ethanol
[12] = 0.50 mg/ml in 20:80% w/w PEG 300:ethanol
[13] = 0.75 mg/ml in 20:80% v/v PEG 300:ethanol (190 proof)
[14] = 1.0 mg/ml in 20:80% w/w PEG 300:ethanol
[15] = female rats, inhaled dose 1.8 mg/m^2 BSA, 20 min exposure, end of exposure
[16] = female rats, inhaled dose 3.9 mg/m^2 BSA, 45 min exposure, end of exposure
[17] = female rats, inhaled dose 7.7 mg/m^2 BSA, 90 min exposure, end of exposure
[18] = male rats, inhaled dose 1.2 mg/m^2 BSA, 20 min exposure, end of exposure
[19] = male rats, inhaled dose 2.1 mg/m^2 BSA, 45 min exposure, end of exposure
[20] = male rats, inhaled dose 3.6 mg/m^2 BSA, 90 min exposure, end of exposure
[21] = male rats, inhaled dose 10.0 mg/m^2 BSA, 180 min exposure, 1 day post-exposure
[22] = male rats, inhaled dose 10.0 mg/m^2 BSA, 180 min exposure, 3 days post-exposure

CCC1=C[C@@H]2CN(C1)Cc1c([nH]c3ccccc13)[C@@](C(=O)OC)(c1cc3c(cc1OC)N(C)[C@H]1[C@@](O)(C(=O)OC)[C@H](OC(C)=O)[C@]4(CC)C=CCN5CC[C@]31[C@@H]54)C2
Alopecia of the dorsal body (animals affected/animals) ([1]; rat, intradermal injection): 7/7 | Lesions lasting until the test termination at day 41 ([1]; rat, intradermal injection): lesions that lasted until the test termination at day 41 | Rough coat (animals affected/animals) ([1]; rat, intradermal injection): 2/7

O=P1(N(CCCl)CCCl)NCCCO1 (centres unmarked)
Vesicant classification as determined by the methods used herein [1]: non-vesicants | Individual Lesion Size Measurements, Day of Test (post injection) 20 [1, 9]: 12.1 mm^2 and 13.2 mm^2 and 17.4 mm^2 | Individual Lesion Size Measurements, Day of Test (post injection) 22 [1, 9]: 12.5 mm^2 and 12.2 mm^2 and 14.6 mm^2 | Individual Lesion Size Measurements, Day of Test (post injection) 24 [1, 9]: 14.0 mm^2 and 12.7 mm^2 and 15.6 mm^2 | Individual Lesion Size Measurements, Day of Test (post injection) 27 [1, 9]: 7.8 mm^2 and 7.5 mm^2 and 4.1 mm^2 | Individual Lesion Size Measurements, Day of Test (post injection) 29 [1, 9]: 2.4 mm^2 and 1.8 mm^2 and 2.0 mm^2 | Individual Lesion Size Measurements, Day of Test (post injection) 31 ([1]; rat, 0.2 ml intradermal at clinical concentration, individual animals, day 31): 1.5 mm^2

O=c1[nH]cc(F)c(=O)[nH]1
Vesicant classification as determined by the methods used herein [1]: non-vesicants | Individual Lesion Size Measurements, Day of Test (post injection) 22 [1, 9]: 2.0 mm^2 | Alopecia of the dorsal body (animals affected/animals) ([1]; rat, intradermal injection): 7/7 | Rough coat (animals affected/animals) ([1]; rat, intradermal injection): 1/7

9-aminocamptothecin
Vesicant classification as determined by the methods used herein [1]: non-vesicants

COc1cccc2c1C(=O)c1c(O)c3c(c(O)c1C2=O)C[C@@](O)(C(=O)CO)C[C@@H]3O[C@H]1C[C@H](N)[C@H](O)[C@H](C)O1 [Doxorubicin, doxorubicin]
Alopecia of the dorsal body (animals affected/animals) ([1]; rat, intradermal injection): 3/7 | Edema ([1]; rat, intradermal injection): Moderate edema | Lesions lasting until the test termination at day 41 ([1]; rat, intradermal injection): lesions that lasted until the test termination at day 41

COc1cc([C@@H]2c3cc4c(cc3[C@@H](O[C@@H]3O[C@@H]5CO[C@@H](C)O[C@H]5[C@H](O)[C@H]3O)[C@H]3COC(=O)[C@H]23)OCO4)cc(OC)c1O [Etoposide, etoposide]
Vesicant classification as determined by the methods used herein [1]: non-vesicants | Alopecia of the dorsal body (animals affected/animals) ([1]; rat, intradermal injection): 7/7

CO[C@@]12[C@H](COC(N)=O)C3=C(C(=O)C(C)=C(N)C3=O)N1C[C@@H]1N[C@@H]12 [Mutamycin, mitomycin]
Individual Lesion Size Measurements, Day of Test (post injection) 41 ([1]; rat, 0.2 ml intradermal at clinical concentration, individual animals, day 41): 25.6 mm^2 | Alopecia of the dorsal body (animals affected/animals) ([1]; rat, intradermal injection): 4/7 | Discoloration of the skin around the site of injection ([1]; rat, intradermal injection): Discoloration of the skin around the site of injection was seen | Edema ([1]; rat, intradermal injection): Moderate edema | Lesions lasting until the test termination at day 41 ([1]; rat, intradermal injection): only one animal of seven still had lesions to the end of the test

CC(=O)O[C@H]1C(=O)[C@@]2(C)[C@H]([C@H](OC(=O)c3ccccc3)[C@]3(O)C[C@H](OC(=O)[C@H](O)[C@@H](NC(=O)c4ccccc4)c4ccccc4)C(C)=C1C3(C)C)[C@]1(OC(C)=O)CO[C@@H]1C[C@@H]2O [Taxol, Paclitaxel]
Individual Lesion Size Measurements, Day of Test (post injection) 20 [1, 9]: 5.6 mm^2 | Individual Lesion Size Measurements, Day of Test (post injection) 22 [1, 9]: 2.1 mm^2 | Individual Lesion Size Measurements, Day of Test (post injection) 24 [1, 9]: 1.8 mm^2 | Alopecia of the dorsal body (animals affected/animals) ([1]; rat, intradermal injection): 7/7

CC[C@]1(O)C[C@H]2CN(CCc3c([nH]c4ccccc34)[C@@](C(=O)OC)(c3cc4c(cc3OC)N(C=O)[C@H]3[C@@](O)(C(=O)OC)[C@H](OC(C)=O)[C@]5(CC)C=CCN6CC[C@]43[C@@H]65)C2)C1 [Vincristine, vincristine]
Alopecia of the dorsal body (animals affected/animals) ([1]; rat, intradermal injection): 2/7 | Lesions lasting until the test termination at day 41 ([1]; rat, intradermal injection): lesions that lasted until the test termination at day 41 | Rough coat (animals affected/animals) ([1]; rat, intradermal injection): 4/7 | Systemic effects ([1]; rat, intradermal injection): Systemic effects were observed only for vincristine

Nc1ccn([C@@H]2O[C@H](CO)[C@@H](O)[C@@H]2O)c(=O)n1 [cytarabine]
Vesicant classification as determined by the methods used herein [1]: non-vesicants | Abrasions of the dorsal body ([1]; rat, intradermal injection): all drugs except cytarabine | Dermal lesions ([1]; rat, intradermal injection): all drugs except for cytarabine | Severe erythema ([1]; rat, intradermal injection): all drugs except for cisplatin (platinol) and cytarabine

bleomycin
Pulmonary toxicities, share of treated patients [2]: about 10 % of treated patients | Vesicant classification as determined by the methods used herein [1]: non-vesicants | Individual Lesion Size Measurements, Day of Test (post injection) 20 [1, 9]: 1.3 mm^2 and 1.0 mm^2 | Individual Lesion Size Measurements, Day of Test (post injection) 22 [1, 9]: 0.6 mm^2 | Individual Lesion Size Measurements, Day of Test (post injection) 27 [1, 9]: 0.4 mm^2 | Alopecia of the dorsal body (animals affected/animals) ([1]; rat, intradermal injection): 7/7

carboplatin
Concentration of carboplatin in the lung ([3]; IV 26.2 mg/kg (5.24 mg per 200 gram rat), 30 minutes post dose): 21 ug carboplatin/gram of lung | Concentration of carboplatin in the lung as a percentage of the dose ([3]; IV 26.2 mg/kg, 30 minutes post dose): 0.4 % of the dose | Ratio of carboplatin in lung to carboplatin in plasma ([3]; IV injection (Tinker et al)): < 5 | Ratio of carboplatin in lung to carboplatin in plasma [4]: ≤ 12 | Results (RTT = respiratory tract toxicity evaluated microscopically) ([5]; female rats, dose deposited in lung 6.35 mg/m^2 BSA): Moderate RTT | Results (RTT = respiratory tract toxicity evaluated microscopically) ([5]; female rats, dose deposited in lung 13.86 mg/m^2 BSA): Severe /rtt | Results (RTT = respiratory tract toxicity evaluated microscopically) ([5]; female rats, dose deposited in lung 17.57 mg/m^2 BSA): Lethal | Results (RTT = respiratory tract toxicity evaluated microscopically) ([5]; male rats, dose deposited in lung 1.13 mg/m^2 BSA): Mininial/mild RTT | Results (RTT = respiratory tract toxicity evaluated microscopically) ([5]; male rats, dose deposited in lung 3.32 mg/m^2 BSA): Moderate RTT | Results (RTT = respiratory tract toxicity evaluated microscopically) ([5]; male rats, dose deposited in lung 7.18 mg/m^2 BSA): Severe RTT | Results (RTT = respiratory tract toxicity evaluated microscopically) ([5]; male rats, dose deposited in lung 12.88 mg/m^2 BSA): Lethal | Toxicity at the lowest doses ([5]; rat, both sexes, inhalation): well tolerated and caused only minimal to mild microscopic changes in the respiratory tract | Toxicity at higher doses ([5]; rat, inhalation): moderate or severe | Toxicity at the highest doses in each sex ([5]; rat, inhalation): lethal | Toxicity of inhaled doses giving 24 ug/gram of lung ([5]; rat, inhalation 1.2 mg/m^2 (male), less than 3.9 mg/m^2 (female)): not lethal in the rat and cause only mild to moderate microscopic toxicity to the respiratory tract | Individual Lesion Size Measurements, Day of Test (post injection) 34 ([1]; rat, 0.2 ml intradermal at clinical concentration, individual animals, day 34): 19.2 mm^2 | Individual Lesion Size Measurements, Day of Test (post injection) 36 ([1]; rat, 0.2 ml intradermal at clinical concentration, individual animals, day 36): 0.6 mm^2 | Saturation of the solution (solubility) ([6]; 0.24 mg/ml in 20:80% w/w glycerol:ethanol): appeared to be saturated | Resistivity of the solution [6, 10]: 5,680 ohm-m | Saturation of the solution (solubility) [6, 10]: appeared to be saturated | Approximate dissolution time [6, 11]: about 24 hours | Resistivity of the solution [6, 11]: 2,130 ohm-m | Approximate dissolution time [6, 12]: about 24 hours | Resistivity of the solution [6, 12]: 2,020 ohm-m | Saturation of the solution (solubility) ([6]; 0.50 mg/ml in 20:80% w/w glycerol:ethanol): saturated | Resistivity of the solution ([6]; 0.50 mg/ml in 20:80% w/w propylene glycol:ethanol): 5,350 ohm-m | Density [6, 13]: 0.861 g/mL | Relative permitivity [6, 13]: 22 | Resistivity [6, 13]: 2,430 ohm-m | Surface tension [6, 13]: 24.5 dynes/cm | Resistivity of the solution [6, 14]: 2,000 ohm-m | Saturation of the solution (solubility) [6, 14]: saturated | Inhaled dose achieving 24 ug/gram of lung ([7]; female rats): less than 3.9 mg/m^2 | Lung/Plasma [7, 15]: 53.8 | Measured Carboplatin Concentration Lung [7, 15]: 21 µg/g | Measured Carboplatin Concentration Plasma [7, 15]: 0.39 µg/g | Lung/Plasma [7, 16]: 46.7 | Measured Carboplatin Concentration Lung [7, 16]: 35 µg/g | Measured Carboplatin Concentration Plasma [7, 16]: 0.75 µg/g | Lung/Plasma [7, 17]: 57.1 | Measured Carboplatin Concentration Lung [7, 17]: 72 µg/g | Measured Carboplatin Concentration Plasma [7, 17]: 1.26 µg/g | Inhaled dose achieving 24 ug/gram of lung ([7]; male rats): 1.2 mg/m^2 | Lung/Plasma [7, 18]: 53.1 | Measured Carboplatin Concentration Lung [7, 18]: 26 µg/g | Measured Carboplatin Concentration Plasma [7, 18]: 0.49 µg/g | Lung/Plasma [7, 19]: 53.8 | Measured Carboplatin Concentration Lung [7, 19]: 50 µg/g | Measured Carboplatin Concentration Plasma [7, 19]: 0.93 µg/g | Lung/Plasma [7, 20]: 60.1 | Measured Carboplatin Concentration Lung [7, 20]: 86 µg/g | Measured Carboplatin Concentration Plasma [7, 20]: 1.43 µg/g | Lung/Plasma [7, 21]: 200.0 | Measured Carboplatin Concentration Lung [7, 21]: 28 µg/g | Measured Carboplatin Concentration Plasma [7, 21]: 0.14 µg/g | Lung/Plasma [7, 22]: 277.8 | Measured Carboplatin Concentration Lung [7, 22]: 25 µg/g | Measured Carboplatin Concentration Plasma [7, 22]: 0.09 µg/g | Ratio of carboplatin in lung to carboplatin in plasma ([7]; 1 day post exposure): 200.0 | Ratio of carboplatin in lung to carboplatin in plasma ([7]; 3 days post exposure): 277.8

cisplatin
Results [8]: PD lung | Vesicant classification as determined by the methods used herein [1]: non-vesicants | Individual Lesion Size Measurements, Day of Test (post injection) 29 [1, 9]: 1.4 mm^2 | Severe erythema ([1]; rat, intradermal injection): all drugs except for cisplatin (platinol) and cytarabine

Values joined by “and” are separate entries in the source; they are usually repeats but may differ in a detail not shown here. Identical values can stand only once. Like-named read-outs stand apart in the source and are kept apart here.
